According to patent publication US10442796B2, “2,3,5-substituted thiophene compound as protein kinase inhibitor” (KOREA INSTITUTE OF SCIENCE AND TECHNOLOGY, priority 2016, dated 2019):

Tested on: FLT3-ITD-F691L-D835Y Ba/F3 cells
Assay: In vivo life-span (survival) in mouse AML model
Conditions: po; for Median survival: qd
Procedure: Nude mice (5-6 weeks old)(Orient) were purchased and used after a week. Mice were anesthetized following IACUC approved animal protocol. FLT3-ITD F691L-D835Y, luc+ Ba/F3 cell (Established in-house) suspension (in 0.1 mL RPMI1640 (Welgene) of 1.0×10^6 cells) was injected into tail vein intravenously using a 29-G needle, and an tail mark was added to each animal for identification. After 6 days, the luminescence intensity was measured using IVIS (Perkin Elmer) to calculate the ROI intensity.
Each compound solution was prepared freshly just before administration. Compounds were administered orally using a mouse sondae once a day, 0.1 mL per mouse. Mice were humanely euthanized if animals experience 20% body weight loss.

With `CC(C)(C)c1cc(NC(=O)Nc2ccc(-c3cn4c(n3)sc3cc(OCCN5CCOCC5)ccc34)cc2)no1` [AC220, Quizartinib, reference compound] as the molecule, how does the Median survival (15 mpk) read?
Its Median survival is 12.

And the Median survival (30 mpk)?
The Median survival was 13.

What about the “life-span of the mouse model (in words)” value (qd, 15, 30 mg/kg) of the same molecule?
The value was “almost same life span as the vehicle control”.
